From patent US20080206239A1 (ANTITOPE, published 2008)

The chains behind the UniProt entries cited, without tags or fusion partners. Residues count along the entry.
UniProt P01375, 77-233 limits assumed: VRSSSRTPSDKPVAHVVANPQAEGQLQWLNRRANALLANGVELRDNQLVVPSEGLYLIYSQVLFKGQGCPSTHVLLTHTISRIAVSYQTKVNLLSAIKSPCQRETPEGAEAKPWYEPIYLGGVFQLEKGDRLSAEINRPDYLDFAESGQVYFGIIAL

Target: human TNFα (human, UniProt P01375 77-233)
Assay: cell-based or functional assay

- Ratio of Activities compared to Chimeric Antibody (fold difference, WEHI-164 protection assay at 25 ng/ml): 1 fold
B1: control chimeric antibody (A2 V regions, SEQ. IDs No. 1 and No. 2) (antibody, human IgG1, V domains shown)
VH: EVKLEESGGGLVQPGGSMKLSCVASGFIFSNHWMNWVRQSPEKGLEWVAEIRSKSINSATHYAESVKGRFTISRDDSKSAVYLQMTDLRTEDTGVYYCSRNYYGSTYDYWGQGTTLTVSS
VL: DILLTQSPAILSVSPGERVSFSCRASQFVGSSIHWYQQRTNGSPRLLIKYASESMSGIPSRFSGSGSGTDFTLSINTVESEDIADYYCQQSHSWPFTFGSGTNLEVK
